Amino acid sequences for entries named in this document (tags omitted).
UniProt Q13547, whole entry: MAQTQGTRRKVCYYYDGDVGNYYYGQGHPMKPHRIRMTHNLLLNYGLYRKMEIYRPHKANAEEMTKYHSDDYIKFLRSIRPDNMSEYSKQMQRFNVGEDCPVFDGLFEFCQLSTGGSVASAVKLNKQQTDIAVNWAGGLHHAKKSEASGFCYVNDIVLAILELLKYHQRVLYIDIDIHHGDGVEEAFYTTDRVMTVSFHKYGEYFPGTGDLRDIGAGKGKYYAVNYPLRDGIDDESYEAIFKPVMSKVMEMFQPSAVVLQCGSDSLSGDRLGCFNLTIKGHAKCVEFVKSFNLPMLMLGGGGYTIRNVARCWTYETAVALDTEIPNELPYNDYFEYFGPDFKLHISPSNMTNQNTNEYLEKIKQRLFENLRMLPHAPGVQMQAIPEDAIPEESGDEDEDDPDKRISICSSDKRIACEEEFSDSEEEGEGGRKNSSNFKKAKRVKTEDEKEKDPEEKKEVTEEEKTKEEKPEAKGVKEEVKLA

The target in the test is T1, HDAC1 enzyme (Homo sapiens, UniProt Q13547).
T1 construct: Amplification of human HDAC1 coding region from this cDNA library was cloned separately into the baculovirus expression pDEST20 vector; made in house; host or cells: SF9 insect cells (baculovirus, pDEST20 vector)
In words: In vitro HDAC assay for determination of IC50 values (BIOMOL fluorescent-based HDAC activity assay). Type of test: biochemical. The settings on record: recombinant GST-HDAC1, 500 uM Flur de lys substrate, room temperature 2 h; read-out: IC50 (HDAC 1). The protocol:
Human cDNA library was prepared using cultured SW620 cells. Amplification of human HDAC1 coding region from this cDNA library was cloned separately into the baculovirus expression pDEST20 vector (GATEWAY Cloning Technology, Invitrogen Pte Ltd). The pDEST20-HDAC1 construct was confirmed by DNA sequencing. Recombinant baculovirus was prepared using the Bac-To-Bac method following the manufacturer's instruction (Invitrogen Pte Ltd). Baculovirus titer was determined by plaque assay to be about 10^8 PFU/ml.
Expression of GST-HDAC1 was done by infecting SF9 cells (Invitrogen Pte Ltd) with pDEST20-HDAC1 baculovirus at MOI=1 for 48 h. Soluble cell lysate was incubated with pre-equilibrated Glutathione Sepharose 4B beads (Amersham) at 4°C for 2 h. The beads were washed with PBS buffer for 3 times. The GST-HDAC1 protein was eluted by elution buffer containing 50 mM Tris, pH8.0, 150mM NaCl, 1% Triton X-100 and 10mM or 20mM reduced Glutathione. The purified GST-HDAC1 protein was dialyzed with HDAC storage buffer containing 10mM Tris, pH7.5, 100mM NaCl and 3mM MgCl2. 20% Glycerol was added to purified GST-HDAC1 protein before storage at -80°C.
The assay has been carried out in 96 well format and the BIOMOL fluorescent-based HDAC activity assay has been applied. The reaction composed of assay buffer, containing 25 mM Tris pH 7.5, 137 mM NaCl, 2.7 mM KCl, 1 mM MgCl2, 1 mg/ml BSA, tested compounds, an appropriate concentration of HDAC1 enzyme, 500 uM Flur de lys generic substrate for HDAC1 enzyme and subsequently was incubated at room temperature for 2 h. Flur de lys Developer was added and the reaction was incubated for 10 min. Briefly, deacetylation of the substrate sensitizes it to the developer, which then generates a fluorophore. The fluorophore is excited with 360 nm light and the emitted light (460 nm) is detected on a fluorometric plate reader (Tecan Ultra Microplate detection system, Tecan Group Ltd.).
The analytical software, Prism 4.0 (GraphPad Software Inc) has been used to generate IC50 from a series of data. […]
In general, IC50 refers to the midpoint of a concentration-inhibition curve. As to `CCN(CCC(C)C)Cc1c(C)nc2cc(C=CC(=O)NO)ccn12` [Compound 49, 3-(3-{[Ethyl-(3-methyl-butyl)-amino]-methyl}-2-methyl-imidazo[1,2-a]pyridin-7-yl)-N-hydroxy-acrylamide], the concentration for half-maximal inhibition (IC50) worked out at 20 nM.

In the case of `CCN(CCC(C)C)Cc1c(CC(C)C)nc2cc(C=CC(=O)NO)ccn12` [Compound 60, 3-(3-{[Ethyl-(3-methyl-butyl)-amino]-methyl}-2-isobutyl-imidazo[1,2-a]pyridin-7-yl)-N-hydroxy-acrylamide], the IC50 amounted to 20 nM.

`CCC(C)CN(CC)Cc1c(C(C)(C)C)nc2cc(C=CC(=O)NO)ccn12` (stereo not drawn) [Compound 19, 3-(2-tert-Butyl-3-{[ethyl-(2-methyl-butyl)-amino]-methyl}-imidazo[1,2-a]pyridin-7-yl)-N-hydroxy-acrylamide]: the half-maximal inhibitory concentration (IC50) came out at 260 nM.

Source of the values: patent EP2064211B1, “IMIDAZO[1,2-A]PYRIDINE HYDROXYMATE COMPOUNDS THAT ARE INHIBITORS OF HISTONE DEACETYLASE” (MEI Pharma, Inc., priority 2006, dated 2008).
